## AlphaSeq binding of Ab-95 light chain variants to a spike HR2 peptide

Reference: Engelhart et al. 2022, doi:10.1038/s41597-022-01779-4. File: FLAb, binding data.

All variants were tested on one target, the spike HR2 peptide PDVDLGDISGINAS (SARS-CoV-2).

Parent: Ab-95, a human scFv built as VH, the linker GGGGSGGGGSGGGGS, VL. Only the CDRs of the light chain vary.
VH: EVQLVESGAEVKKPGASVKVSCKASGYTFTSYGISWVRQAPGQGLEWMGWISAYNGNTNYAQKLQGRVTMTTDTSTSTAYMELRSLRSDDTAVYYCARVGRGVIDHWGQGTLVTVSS
VL: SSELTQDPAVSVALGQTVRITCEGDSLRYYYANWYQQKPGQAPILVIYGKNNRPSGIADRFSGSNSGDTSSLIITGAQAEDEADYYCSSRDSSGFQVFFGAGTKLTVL

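The starting antibody came from a phage panning campaign against this peptide. Library AAYL52 holds single substitutions and randomly drawn double and triple substitutions in the CDRs. The scFvs were displayed on barcoded MATa yeast, the peptide on MATalpha yeast. The frequency of each diploid, read from paired DNA barcodes, reflects how well the two displayed proteins bind. Each replicate has its own calibration line, from reference interactions of the BCL2 family. There are three technical replicates.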

Substitutions are numbered in sequence along the VL above, starting at 1 (not Kabat).
This list gathers variants with a substitution at R53 (VL, numbered from residue 1).
Numbers give log10(Kd / nM), so 0 is 1 nM and 3 is 1 µM. Smaller is tighter.
The mean shown is taken over the replicates in which the pair was detected.
"no signal" marks a missing value. The strain was present, yet no cells mated with the target were sequenced in any replicate, which points to weak or no binding.
Nonspecific signal, from three strains lacking the peptide, appeared in 28% of pairings of library AAYL52, centred on 3.91 (5% of these signals below 2.90); values are not corrected for it.
Parent in this assay: reference entry 2.31, copy in this library 2.25.

The variant Y29P+A32N+R53G gave no signal (0 of 3 replicates). For R53K+V97A, the assay gave 2.14 (3 of 3 replicates). With R53A+S92Y+F95P the result was 3.85 (2 of 3 replicates). The variant A32Q+K50I+R53A showed 3.46 (2 of 3 replicates). The variant D25Y+R53D+R90S gave 5.15 (1 of 3 replicates). The variant Y30V+R53T+P54E showed no signal (0 of 3 replicates). The variant R28K+R53Q+S55C gave 3.37 (3 of 3 replicates).

The variant Y29C+G49W+R53I gave 3.12 (2 of 3 replicates). The variant L27S+R53V+S88F gave 3.88 (2 of 3 replicates). The variant Y30P+N52H+R53Y showed no signal (0 of 3 replicates). The variant Y29M+R53F+S88H showed 4.03 (1 of 3 replicates). For K50H+R53E+R90K, the assay gave 4.84 (2 of 3 replicates). The variant L27P+R53L+P54A gave no signal (0 of 3 replicates). The variant N52Q+R53G+R90L gave no signal (0 of 3 replicates).

The variant E23F+R53T+S88D gave 4.07 (3 of 3 replicates). For Y29A+R53I+R90F, the assay gave 3.62 (3 of 3 replicates). The variant N52K+R53Y+S55E gave 3.43 (3 of 3 replicates). The variant R53Q+P54S+S55F gave 1.34 (3 of 3 replicates). With R53S+S89K+G94Q the result was 2.79 (3 of 3 replicates). For R53Q+S92M+S93I, the assay gave 3.64 (2 of 3 replicates). The variant R53N+G94S+Q96P showed 3.67 (1 of 3 replicates).

With R53T+S88E the result was 2.44 (3 of 3 replicates). For G49M+R53Q+V97P, the assay gave no signal (0 of 3 replicates). The variant R28N+R53F+S88G gave no signal (0 of 3 replicates). With R53K+S88E+F98P the result was 3.85 (1 of 3 replicates). The variant R53P gave 3.29 (1 of 3 replicates). For R53E+S88C, the assay gave 4.41 (2 of 3 replicates). The variant Y31F+R53C+Q96T gave 3.62 (1 of 3 replicates).

For R53C+S89Y, the assay gave no signal (0 of 3 replicates). For Y31C+R53N+Q96P, the assay gave 3.78 (3 of 3 replicates).

A selection of 3 entries from above:

changes	mean, log10 nM	detected
L27P+R53L+P54A	no signal	0/3
R53E+S88C	4.41	2/3
R28K+R53Q+S55C	3.37	3/3